Molecular target: Melanocortin receptor 4 (Homo sapiens, UniProt P32245)
Assay: Antagonist activity at human MC4R expressed in CHO cells assessed as decrease in alpha-MSH induced cAMP level by measuring equilibrium binding constant preincubated for 30 mins followed by alpha-MSH addition measured after 30 mins by HTRF method
Type: functional, cell-based
Settings: filed as antagonist, time 60.0 min

Protein sequences, listed by entry. Tags and fused reporters are not part of them.
UniProt P32245, whole entry: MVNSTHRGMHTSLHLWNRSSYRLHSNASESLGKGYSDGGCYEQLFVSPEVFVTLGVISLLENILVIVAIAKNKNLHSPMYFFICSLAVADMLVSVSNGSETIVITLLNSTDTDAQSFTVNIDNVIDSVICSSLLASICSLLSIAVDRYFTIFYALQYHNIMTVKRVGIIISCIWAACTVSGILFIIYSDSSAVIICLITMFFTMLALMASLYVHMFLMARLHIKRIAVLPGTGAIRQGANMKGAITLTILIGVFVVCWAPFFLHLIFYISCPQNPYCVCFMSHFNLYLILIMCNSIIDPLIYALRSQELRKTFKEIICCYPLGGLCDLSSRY

`COc1cc([C@@H](C)C(=O)N2CC[C@@]3(CCc4cc(-c5ncccn5)c(C)nc4N3)C2)c(F)cn1` showed a Kb of 0.72 nM.
Work on `COc1cc([C@@H](C)C(=O)N2CC[C@@]3(CCc4cc(-c5ncccn5)c(C)nc4N3)C2)c(Cl)cn1` yielded a Kb of 0.051 nM.

— ChEMBL document CHEMBL5137067, “Spiro-naphthyridine Antagonists of the Melanocortin Receptor 4 for the Treatment of Cachexia Associated with Chronic Illness” (ACS Med Chem Lett, 2022)
